{
  "sequences": {"note": "The chains behind the UniProt entries cited, without tags or fusion partners.", "UniProt P23975, whole entry, looked up": "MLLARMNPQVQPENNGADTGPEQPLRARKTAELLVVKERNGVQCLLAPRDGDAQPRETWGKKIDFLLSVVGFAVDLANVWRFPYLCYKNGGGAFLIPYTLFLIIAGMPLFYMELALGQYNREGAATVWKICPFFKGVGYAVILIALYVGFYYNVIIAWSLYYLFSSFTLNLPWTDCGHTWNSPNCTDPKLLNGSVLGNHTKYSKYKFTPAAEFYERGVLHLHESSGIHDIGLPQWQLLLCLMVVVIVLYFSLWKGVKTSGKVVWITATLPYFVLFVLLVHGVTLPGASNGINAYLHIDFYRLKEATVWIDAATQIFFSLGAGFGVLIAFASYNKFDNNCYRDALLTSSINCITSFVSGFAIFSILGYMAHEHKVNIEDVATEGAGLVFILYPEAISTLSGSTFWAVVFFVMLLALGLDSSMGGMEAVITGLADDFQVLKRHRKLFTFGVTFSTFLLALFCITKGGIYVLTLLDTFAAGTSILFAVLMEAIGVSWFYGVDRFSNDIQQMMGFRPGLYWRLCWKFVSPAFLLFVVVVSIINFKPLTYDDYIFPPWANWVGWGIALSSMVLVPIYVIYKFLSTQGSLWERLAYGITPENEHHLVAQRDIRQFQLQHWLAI", "UniProt P31645, whole entry, looked up": "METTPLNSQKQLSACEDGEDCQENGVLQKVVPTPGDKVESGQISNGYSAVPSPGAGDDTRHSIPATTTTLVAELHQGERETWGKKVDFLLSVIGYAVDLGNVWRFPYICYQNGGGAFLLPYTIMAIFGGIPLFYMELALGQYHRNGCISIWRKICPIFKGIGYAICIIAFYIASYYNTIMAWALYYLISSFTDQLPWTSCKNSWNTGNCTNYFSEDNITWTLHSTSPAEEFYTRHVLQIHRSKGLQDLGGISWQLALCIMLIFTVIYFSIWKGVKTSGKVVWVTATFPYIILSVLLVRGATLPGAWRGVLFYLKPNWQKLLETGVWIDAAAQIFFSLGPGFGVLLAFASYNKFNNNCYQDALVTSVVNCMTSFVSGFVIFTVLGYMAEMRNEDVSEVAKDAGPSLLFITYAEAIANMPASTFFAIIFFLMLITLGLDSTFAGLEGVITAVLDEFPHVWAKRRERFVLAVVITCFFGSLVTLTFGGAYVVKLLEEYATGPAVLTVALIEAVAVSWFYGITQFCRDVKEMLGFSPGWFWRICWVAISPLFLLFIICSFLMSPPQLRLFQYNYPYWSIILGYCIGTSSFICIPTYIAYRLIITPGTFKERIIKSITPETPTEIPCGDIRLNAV", "UniProt Q01959, whole entry, looked up": "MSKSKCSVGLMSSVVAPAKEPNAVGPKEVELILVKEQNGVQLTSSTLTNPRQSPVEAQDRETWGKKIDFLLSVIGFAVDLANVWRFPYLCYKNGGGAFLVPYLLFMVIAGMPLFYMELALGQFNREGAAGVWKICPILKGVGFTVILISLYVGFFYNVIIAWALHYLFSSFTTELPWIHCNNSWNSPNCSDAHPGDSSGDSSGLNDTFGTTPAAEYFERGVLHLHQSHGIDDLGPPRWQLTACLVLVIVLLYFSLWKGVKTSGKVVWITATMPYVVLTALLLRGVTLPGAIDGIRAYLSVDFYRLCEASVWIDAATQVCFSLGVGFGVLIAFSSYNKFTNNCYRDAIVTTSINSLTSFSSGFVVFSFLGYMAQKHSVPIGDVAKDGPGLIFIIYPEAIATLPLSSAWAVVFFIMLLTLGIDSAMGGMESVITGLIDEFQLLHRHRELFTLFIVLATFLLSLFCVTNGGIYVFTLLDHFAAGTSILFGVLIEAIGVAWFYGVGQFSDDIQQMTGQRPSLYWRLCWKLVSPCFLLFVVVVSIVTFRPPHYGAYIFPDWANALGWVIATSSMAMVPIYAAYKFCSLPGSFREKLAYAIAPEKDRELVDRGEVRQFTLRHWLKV"},
  "source": "ChEMBL document CHEMBL1145304",
  "about": "(Bioorg Med Chem Lett, 2006)",
  "key": {"[1]": {"target": "Sodium-dependent noradrenaline transporter (Homo sapiens, UniProt P23975)", "details": "hek293"}, "[2]": {"target": "Sodium-dependent serotonin transporter (Homo sapiens, UniProt P31645)", "test": "Inhibition of [3H]5-HT reuptake at 5HT transporter in HEK293 cells"}, "[3]": {"target": "Sodium-dependent dopamine transporter (Homo sapiens, UniProt Q01959)", "details": "hek293"}},
  "data": [
    {"smiles": "Clc1cccc(Cl)c1CC(c1ccccc1)N1CCNCC1", "note": "(stereo not drawn)", "values": [
      {"measurement": "IC50", "setting": "[1]", "result": 0.082, "unit": "µM"},
      {"measurement": "IC50", "setting": "[2]", "result": 0.012, "unit": "µM"},
      {"measurement": "IC50", "setting": "[3]", "result": 0.97, "unit": "µM"}
    ]}
  ]
}
